Test [1] in a line: Size-exclusion chromatography (Hummel and Dreyer) binding of warfarin to albumin preparations. The settings on record: different concentrations of warfarin, 50 μM protein, 308 nm, pH 7.4, FIG. 3. The text has this: (§1) A direct method for determining the binding properties of substances to albumin is the size-exclusion chromatography (SEC) according to Hummel and Dreyer (Biochim Biophys Acta 1962; 63: 530-532).
(§2) Thus, an SEC column is equilibrated with a buffer solution containing the binding ligand (e.g., phenylbutazone or warfarin). The absorption in the ultraviolet region is continuously monitored. The protein is applied to the column and eluted in the equilibration buffer. Bound ligand becomes eluted together with the albumin, while the non-bound ligand, which is smaller in most cases, becomes eluted correspondingly later. The absorption of the bound ligand mostly interferes with the absorption of the albumin and possible accompanying substances, such as stabilizers. The later eluting “negative” or so-called “vacancy” peak is caused by the depletion of the ligand in the subsequent buffer, which occupies the larger a surface area, the more binding to the previously eluted albumin occurred. […]
(§3) For these examinations, a Biosep-SEC-s 4000 column, 300×4.6 mm micron (Phenomenenx) on a Shimadzu HPLC installation was used. […] Phenylbutazone was monitored at 263 nm, and warfarin at 308 nm. The regions of linear absorption had been determined beforehand. […]
A general note: In gel filtration, larger molecules generally elute earlier.

Test [2] in a line: Size-exclusion chromatography (Hummel and Dreyer) binding of phenylbutazone to albumin preparations. The settings on record: three concentrations of phenylbutazone, 50 μM protein, 263 nm, pH 7.4, FIG. 2.
Description: as §1, §2, §3

“novel albumin: SD virus-inactivated albumin, 20% solution, free of indole and C6-C10 fatty acid stabilizers”: the “vacancy peak height and area (warfarin bound to albumin) versus commercially available albumins” value in test [1] is reported as “similarly holds”. Also, the “vacancy peak height and area (ultraviolet absorption of phenylbutazone bound to albumin) versus commercially available albumins” value in test [2] is “significantly larger”.

For the origin of these results see US20060234907A1, “Albumin solution and process for the production thereof” (priority 2004, published 2006).
